# From PubChem BioAssay AID2806 (Sanford-Burnham Center for Chemical Genomics, 2010)
# This is a selection; strong and weak results do not stand in their true shares. Some results for these compounds are left out of this collection, so the calls shown say nothing about other tests. Active and inactive are the calls of the source.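 The calls were made as follows: active = inhibition of at least 40% at 10 µM in the primary screen; inactive = the rest.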
# Test system: intestinal alkaline phosphatase [Mus musculus]
# Assay: mouse intestinal phosphatase enzyme inhibition – biochemical, luminescence, uHTS, primary screen (AID 2806);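 also: plate controls were DMSO with enzyme for no effect and no enzyme wells for full effect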
# Conditions: purified mouse IAP, CDP-Star luminescence, 30 min; at 10 µM; active compounds read high
row,SMILES,inhibition
1,COc1cc(C(=O)NCC2(N(C)C)CCCCC2)c([N+](=O)[O-])cc1OC,inactive: -3.7%
2,CN(C)C1(CNC(=O)c2ccc(Br)cc2)CCCCC1,inactive: -12.1%
3,O=C(NCC1(N2CCCCC2)CCCCC1)c1cccc(Cl)c1,inactive: -1%
4,COc1cccc(C(=O)NCC2(N3CCCCC3)CCCCC2)c1,inactive: 6.6%
5,COc1ccc(Cl)cc1C(=O)NCC1(N(C)C)CCCCC1,inactive: -3.7%
6,O=C(OC1CN2CCC1CC2)C(CO)(c1ccccc1)c1ccccc1 (centres undefined),inactive: -3.7%
7,CN(C)c1cccc(C(=O)NCC2(N(C)C)CCCCC2)c1,inactive: 4%
8,CC(C)Oc1ccc(C(=O)NCC2(N(C)C)CCCCC2)cc1,inactive: -1.2%
9,COc1ccc(Br)c(C(=O)NCC2(N3CCCCC3)CCCCC2)c1,inactive: 4.4%
10,CN1[C@@H]2CC[C@H]1CC(OC(=O)C(O)(c1ccccc1)c1ccccc1)C2 (some centres undefined),inactive: -5.3%
11,O=C(NCC1(N2CCCCC2)CCCCC1)c1cc([N+](=O)[O-])ccc1Cl,inactive: 4.1%
12,Cc1ccc(C(=O)NCC2(N3CCCCC3)CCCCC2)cc1,inactive: -0.5%
13,CC(C)N1C(=O)CC2(CCN(CCOC(=O)C(O)(c3ccccc3)c3ccccc3)CC2)C1=O,inactive: -2.2%
14,CCN(CC)CC(C)C(C)OC(=O)C(O)(c1ccccc1)c1ccccc1 (centres undefined),inactive: 1.8%
15,COc1cc(SC)ccc1C(=O)NCC1(N(C)C)CCCCC1,inactive: -4%
16,Cc1ccccc1C(=O)NCC1(N2CCCCC2)CCCCC1,inactive: -0.5%
17,CN(C)c1ccc(C(=O)NCC2(N(C)C)CCCCC2)cc1,inactive: -2.7%
18,CN(C)C1CCCC1OC(=O)C(O)(c1ccccc1)c1ccccc1 (centres undefined),inactive: -7%
19,CCN1CCCC(OC(=O)C2(O)c3ccccc3C=Cc3ccccc32)C1 (centres undefined),inactive: 0%
20,Cc1cc(C(=O)NCC2(N3CCCCC3)CCCCC2)ccc1[N+](=O)[O-],inactive: -6.2%
21,O=C(NCC1(N2CCCCC2)CCCCC1)c1cccc(Br)c1,inactive: -6.7%
22,COc1ccc(C(=O)NCC2(N(C)C)CCCCC2)cc1,inactive: -2.7%
23,C=CCN1CCN(CCOC(=O)C(O)(c2ccccc2)c2ccccc2)CC1,inactive: -5.9%
24,O=C(NCC1(N2CCCCC2)CCCCC1)c1cc(F)c(F)cc1Cl,inactive: -0.2%
